Reference: patent publication US20230106519A1, “GOLD(III)-BIGUANIDE PRODRUGS, METHODS OF PREPARATION AND USES THEREOF” (National University of Singapore, priority 2020, published 2023)

How the values were obtained:
[1] = tested on: A2780cisR (ovarian carcinoma); assay: MTT cytotoxicity assay, A2780cisR; conditions: IC50 (A2780cisR)/IC50 (A2780)
[2] = tested on: MDA-MB-231 (breast adenocarcinoma); assay: MTT cytotoxicity assay, MDA-MB-231; conditions: tested cancer cell lines, MTT 72 h

## [H]/N=C(/N)N/C(=N/[H])NCCc1ccccc1 [Phenformin]
[1]
  RF (Resistance Factor): 2
[2]
  cytotoxicity in words: only marginally cytotoxic
